# Measurements published in the supplement of paper PMC8728848.
# This excerpt belongs to a sample that is enriched for the strongest signals.
# B1: LysM (Drosophila melanogaster) (protein)
# chain: MSPILGYWKIKGLVQPTRLLLEYLEEKYEEHLYERDEGDKWRNKKFELGLEFPNLPYYIDGDVKLTQSMAIIRYIADKHNMLGGCPKERAEISMLEGAVLDIRYGVSRIAYSKDFETLKVDFLSKLPEMLKMFEDRLCHKTYLNGDHVTHPDFMLYDALDVVLYMDPMCLDAFPKLVCFKKRIEAIPQIDKYLKSSKYIAWPLQGWQATFGGGDHPPKSDLVPRGSELWMDDSEFMFNEKQSIRDSGRTLKRYGSTCCNSLRNNETLIRHIVEKTDTLQGIALKYGCTTEQIRRANRLFASDSLFLRQFLLVPVEKNSPYYPQVPGDSIAAFVARAIHRD
# Columns and labels:
# Test in all cases: glycan array binding signal (z-score within array); higher = stronger binding
# Conditions in all cases: glycan notation: IUPAC condensed, linker removed
# [1] = target: Fuc(a1-2)Gal(b1-3)GlcNAc
# [2] = target: Fuc(a1-2)Gal(b1-4)GlcNAc(b1-3)Gal(b1-4)GlcNAc(b1-2)Man(a1-3)[Fuc(a1-2)Gal(b1-4)GlcNAc(b1-3)Gal(b1-4)GlcNAc(b1-2)Man(a1-6)]Man(b1-4)GlcNAc(b1-4)GlcNAc
# [3] = target: Fuc(a1-2)Gal(b1-4)GlcNAc(b1-3)GalNAc
# [4] = target: Fuc(a1-2)Gal(b1-4)GlcNAc6S
# [5] = target: Fuc(a1-2)[Gal(a1-3)]Gal(b1-4)GlcNAc(b1-2)Man(a1-3)[Fuc(a1-2)[Gal(a1-3)]Gal(b1-4)GlcNAc(b1-2)Man(a1-6)]Man(b1-4)GlcNAc(b1-4)[Fuc(a1-6)]GlcNAc
# [6] = target: Fuc(a1-2)[Gal(a1-3)]Gal(b1-4)[Fuc(a1-3)]GlcNAc
# [7] = target: Fuc(a1-2)[GalNAc(a1-3)]Gal(b1-3)GalNAc(b1-3)Gal(a1-4)Gal(b1-4)Glc
# [8] = target: Fuc(a1-2)[GalNAc(a1-3)]Gal(b1-3)GlcNAc
# [9] = target: Fuc(a1-3)[Gal(b1-4)]GlcNAc6S
# [10] = target: Gal(a1-3)Gal(b1-4)Glc
# [11] = target: Gal(a1-4)Gal(b1-4)GlcNAc(b1-2)Man(a1-3)[Gal(a1-4)Gal(b1-4)GlcNAc(b1-2)Man(a1-6)]Man(b1-4)GlcNAc(b1-4)GlcNAc
# [12] = target: Gal(b1-2)Gal
# [13] = target: Gal(b1-3)GalNAc(b1-3)Gal(a1-4)Gal(b1-4)Glc
# [14] = target: Gal(b1-3)GalNAc(b1-4)Gal(b1-4)Glc
# [15] = target: Gal(b1-3)GalNAc(b1-4)[Neu5Ac(a2-3)]Gal(b1-4)Glc
# [16] = target: Gal(b1-3)GlcNAc(a1-3)Gal(b1-4)GlcNAc
# [17] = target: Gal(b1-3)GlcNAc(b1-3)Gal(b1-4)[Fuc(a1-3)]GlcNAc(b1-6)[Gal(b1-3)GlcNAc(b1-3)]Gal(b1-4)Glc
# [18] = target: Gal(b1-4)GlcNAc(b1-2)Man
# [19] = target: Gal(b1-4)GlcNAc(b1-2)Man(a1-3)[Gal(b1-4)GlcNAc(b1-2)Man(a1-6)][GlcNAc(b1-4)]Man(b1-4)GlcNAc(b1-4)[Fuc(a1-6)]GlcNAc
# [20] = target: Gal(b1-4)GlcNAc(b1-2)Man(a1-6)[Man(a1-3)]Man(b1-4)GlcNAc(b1-4)GlcNAc
# [21] = target: Gal(b1-4)GlcNAc(b1-3)Gal(b1-4)GlcNAc(b1-2)Man(a1-3)[Gal(b1-4)GlcNAc(b1-3)Gal(b1-4)GlcNAc(b1-2)Man(a1-6)]Man(b1-4)GlcNAc(b1-4)GlcNAc
# [22] = target: Gal(b1-4)GlcNAc(b1-3)Gal(b1-4)GlcNAc(b1-2)Man(a1-3)[Gal(b1-4)GlcNAc(b1-3)Gal(b1-4)GlcNAc(b1-2)Man(a1-6)]Man(b1-4)GlcNAc(b1-4)[Fuc(a1-6)]GlcNAc
# [23] = target: Gal(b1-4)GlcNAc(b1-3)Gal(b1-4)GlcNAc(b1-2)[Gal(b1-4)GlcNAc(b1-3)Gal(b1-4)GlcNAc(b1-6)]Man(a1-6)[Gal(b1-4)GlcNAc(b1-3)Gal(b1-4)GlcNAc(b1-2)Man(a1-3)]Man(b1-4)GlcNAc(b1-4)GlcNAc
# [24] = target: Gal(b1-4)GlcNAc(b1-3)Gal(b1-4)GlcNAc(b1-3)Gal(b1-4)GlcNAc(b1-3)Gal(b1-4)GlcNAc(b1-3)Gal(b1-4)GlcNAc(b1-3)Gal(b1-4)GlcNAc(b1-2)Man(a1-3)[Gal(b1-4)GlcNAc(b1-3)Gal(b1-4)GlcNAc(b1-3)Gal(b1-4)GlcNAc(b1-3)Gal(b1-4)GlcNAc(b1-3)Gal(b1-4)GlcNAc(b1-3)Gal(b1-4)GlcNAc(b1-2)Man(a1-6)]Man(b1-4)GlcNAc(b1-4)GlcNAc
# [25] = target: Gal(b1-4)GlcNAc(b1-3)Gal(b1-4)GlcNAc(b1-6)[Gal(b1-3)]GalNAc
# [26] = target: Gal(b1-4)GlcNAc(b1-6)Gal(b1-4)GlcNAc
# [27] = target: Gal3S(b1-4)Glc
# [28] = target: Gal3S(b1-4)[Fuc(a1-3)]Glc6S
# [29] = target: Gal4S6S(b1-4)GlcNAc
# [30] = target: Gal6S(b1-3)GlcNAc6S
# [31] = target: GalNAc(a1-3)GalNAc(b1-3)Gal(a1-4)Gal(b1-4)Glc
# [32] = target: GalNAc(b1-3)Gal(a1-6)Gal(b1-4)Glc
# [33] = target: GlcNAc(b1-2)Gal(b1-3)GalNAc
# [34] = target: GlcNAc(b1-2)Man(a1-3)[GlcNAc(b1-2)Man(a1-6)]Man(b1-4)GlcNAc(b1-4)[Fuc(a1-6)]GlcNAc
# [35] = target: GlcNAc(b1-2)[GlcNAc(b1-6)]Man(a1-6)[GlcNAc(b1-4)][GlcNAc(b1-2)Man(a1-3)]Man(b1-4)GlcNAc(b1-4)GlcNAc
# [36] = target: GlcNAc(b1-3)Gal(b1-4)GlcNAc(b1-2)Man(a1-3)[GlcNAc(b1-3)Gal(b1-4)GlcNAc(b1-2)Man(a1-6)]Man(b1-4)GlcNAc(b1-4)GlcNAc
# [37] = target: GlcNAc(b1-3)Gal(b1-4)GlcNAc(b1-2)[GlcNAc(b1-3)Gal(b1-4)GlcNAc(b1-6)]Man(a1-6)[GlcNAc(b1-3)Gal(b1-4)GlcNAc(b1-2)Man(a1-3)]Man(b1-4)GlcNAc(b1-4)GlcNAc
# [38] = target: GlcNAc(b1-3)Gal(b1-4)GlcNAc(b1-6)[GlcNAc(b1-3)Gal(b1-3)]GalNAc
# [39] = target: GlcNAc(b1-4)Gal(b1-4)GlcNAc
# [40] = target: GlcNAc(b1-4)[GlcNAc(b1-6)]GalNAc
# [41] = target: GlcNAc(b1-6)Gal(b1-4)GlcNAc
# [42] = target: Kdn(a2-3)Gal(b1-4)[Fuc(a1-3)]GlcNAc
# [43] = target: Man(a1-2)Man(a1-3)[Man(a1-2)Man(a1-6)]Man
# [44] = target: Neu5Ac(a2-3)Gal(b1-3)GlcNAc6S
# [45] = target: Neu5Ac(a2-3)Gal(b1-4)GlcNAc(b1-2)Man
# [46] = target: Neu5Ac(a2-3)Gal(b1-4)GlcNAc(b1-2)Man(a1-3)[GlcNAc(b1-4)][Neu5Ac(a2-3)Gal(b1-4)GlcNAc(b1-2)Man(a1-6)]Man(b1-4)GlcNAc(b1-4)GlcNAc
# [47] = target: Neu5Ac(a2-3)Gal(b1-4)GlcNAc(b1-2)[Neu5Ac(a2-3)Gal(b1-4)GlcNAc(b1-6)]Man(a1-6)[Neu5Ac(a2-3)Gal(b1-4)GlcNAc(b1-2)Man(a1-3)]Man(b1-4)GlcNAc(b1-4)GlcNAc
# [48] = target: Neu5Ac(a2-3)Gal(b1-4)GlcNAc(b1-3)Gal(b1-4)GlcNAc(b1-3)Gal(b1-4)GlcNAc
# [49] = target: Neu5Ac(a2-3)Gal(b1-4)GlcNAc(b1-3)Gal(b1-4)GlcNAc(b1-6)[Gal(b1-3)]GalNAc
# [50] = target: Neu5Ac(a2-3)Gal(b1-4)[Fuc(a1-3)]GlcNAc(b1-3)Gal(b1-4)[Fuc(a1-3)]GlcNAc(b1-3)Gal(b1-4)[Fuc(a1-3)]GlcNAc
# [51] = target: Neu5Ac(a2-6)Gal(b1-4)GlcNAc(b1-2)Man(a1-3)[Gal(b1-4)GlcNAc(b1-2)Man(a1-6)]Man(b1-4)GlcNAc(b1-4)GlcNAc
# [52] = target: Neu5Ac(a2-6)Gal(b1-4)GlcNAc(b1-2)Man(a1-3)[Neu5Ac(a2-6)Gal(b1-4)GlcNAc(b1-2)Man(a1-6)]Man(b1-4)GlcNAc(b1-4)[Fuc(a1-6)]GlcNAc
# [53] = target: Neu5Ac(a2-6)GlcNAc(b1-4)GlcNAc
# [54] = target: Neu5Ac(a2-8)Neu5Ac(a2-3)[GalNAc(b1-4)]Gal(b1-4)Glc
# [55] = target: Neu5Gc(a2-3)Gal(b1-3)GlcNAc
binder,measurement,setting,value
B1,glycan array binding signal (z-score),[1],0.084
same,glycan array binding signal (z-score),[2],0.124
same,glycan array binding signal (z-score),[3],1.48
same,glycan array binding signal (z-score),[4],0.214
same,glycan array binding signal (z-score),[5],-0.266
same,glycan array binding signal (z-score),[6],0.205
same,glycan array binding signal (z-score),[7],-0.561
same,glycan array binding signal (z-score),[8],-0.736
same,glycan array binding signal (z-score),[9],0.534
same,glycan array binding signal (z-score),[10],1.95
same,glycan array binding signal (z-score),[11],1.59
same,glycan array binding signal (z-score),[12],1.82
same,glycan array binding signal (z-score),[13],0.834
same,glycan array binding signal (z-score),[14],-0.372
same,glycan array binding signal (z-score),[15],-0.514
same,glycan array binding signal (z-score),[16],-0.251
same,glycan array binding signal (z-score),[17],-0.827
same,glycan array binding signal (z-score),[18],-0.115
same,glycan array binding signal (z-score),[19],-0.711
same,glycan array binding signal (z-score),[20],-0.644
same,glycan array binding signal (z-score),[21],3.71
same,glycan array binding signal (z-score),[22],0.915
same,glycan array binding signal (z-score),[23],3.79
same,glycan array binding signal (z-score),[24],0.241
same,glycan array binding signal (z-score),[25],0.494
same,glycan array binding signal (z-score),[26],-0.971
same,glycan array binding signal (z-score),[27],1
same,glycan array binding signal (z-score),[28],2.34
same,glycan array binding signal (z-score),[29],0.152
same,glycan array binding signal (z-score),[30],2.02
same,glycan array binding signal (z-score),[31],-0.309
same,glycan array binding signal (z-score),[32],-0.54
same,glycan array binding signal (z-score),[33],0.833
same,glycan array binding signal (z-score),[34],0.086
same,glycan array binding signal (z-score),[35],-0.805
same,glycan array binding signal (z-score),[36],1.23
same,glycan array binding signal (z-score),[37],1.87
same,glycan array binding signal (z-score),[38],-0.625
same,glycan array binding signal (z-score),[39],1.53
same,glycan array binding signal (z-score),[40],0.035
same,glycan array binding signal (z-score),[41],-0.074
same,glycan array binding signal (z-score),[42],-0.101
same,glycan array binding signal (z-score),[43],-0.391
same,glycan array binding signal (z-score),[44],-0.008
same,glycan array binding signal (z-score),[45],12.9
same,glycan array binding signal (z-score),[46],-1.12
same,glycan array binding signal (z-score),[47],2.6
same,glycan array binding signal (z-score),[48],-0.335
same,glycan array binding signal (z-score),[49],0.543
same,glycan array binding signal (z-score),[50],-0.011
same,glycan array binding signal (z-score),[51],-0.738
same,glycan array binding signal (z-score),[52],-0.548
same,glycan array binding signal (z-score),[53],0.476
same,glycan array binding signal (z-score),[54],-0.6
same,glycan array binding signal (z-score),[55],-0.137
